# Ab-14 heavy chain CDR variants: yeast mating affinities

Source: Li et al. 2023 (doi:10.1038/s41467-023-39022-2), MIT Lincoln Laboratory and A-Alpha Bio; data file from the FLAb repository.

Target: peptide PDVDLGDISGINAS, taken from heptad repeat 2 (HR2) of SARS-CoV-2 spike.

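Phage display of a naive human antibody library on the peptide gave the parent. Designed CDR sequences, proposed from the first random library and measured here. Their group label is 14H_GP_HC (GP: Gaussian process model; HC: hill climbing; a sequence that several methods proposed may carry one label only). The assay is AlphaSeq: two haploid yeast populations carry antibody and antigen on their surface. The frequency of each diploid, read from paired DNA barcodes, reflects how well the two displayed proteins bind. Scores were corrected for input abundance and mapped to Kd with protein pairs of known affinity run in the same pool. The assay was run in six technical replicates.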

Each scFv is VH, a (GGGGS)3 linker, VL, as in the parent Ab-14, and differs from it in the CDRs of the heavy chain only.
VH: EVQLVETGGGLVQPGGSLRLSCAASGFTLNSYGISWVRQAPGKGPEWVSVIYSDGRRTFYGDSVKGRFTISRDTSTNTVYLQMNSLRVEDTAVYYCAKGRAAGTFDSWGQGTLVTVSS
VL: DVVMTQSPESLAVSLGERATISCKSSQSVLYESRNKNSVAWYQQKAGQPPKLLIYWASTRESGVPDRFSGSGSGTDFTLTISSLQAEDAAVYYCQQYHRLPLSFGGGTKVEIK

Substitutions are numbered in sequence along the VH above, starting at 1 (not Kabat).
Numbers give log10(Kd / nM), so 0 is 1 nM and 3 is 1 µM. Smaller is tighter.
Replicates are averaged; those with no signal do not enter the mean.
A pair that was not seen in that replicate is written "nd"; this usually means weak binding, but a binder can also be missed.
The authors' rule: three or more of the six replicates give a measured affinity, fewer mean a poor binder.

| changes | replicates, log10 nM | log10 Kd (nM), mean | signal with controls |
|---|---|---|---|
| N30D/R100Q/S107V | 0.79 0.57 0.64 1.63 0.35 nd | 0.80 | 0/18 |
| T28C/S31D/G61A/A101T/S107E | 2.30 1.57 1.30 2.50 3.31 2.53 | 2.25 | 0/18 |
| S53A/R100E/D106K/S107K | 1.39 2.60 nd nd 2.23 3.19 | 2.35 | 0/18 |
| N30D/S53A/D106H | 1.27 1.23 1.20 1.79 3.08 nd | 1.72 | 0/18 |
| T28D/G61I/S107A | 0.70 0.26 0.14 0.41 0.42 0.31 | 0.37 | 2/18 (2.61) |
| T28E/S31E/S107F | 0.79 0.32 0.56 0.52 0.24 0.26 | 0.45 | 0/18 |
| N30D/S53A/D106A | nd nd nd 1.06 nd nd | 1.06 | 0/18 |
| S31E/G61S/R100W/S107N | 1.05 1.50 0.77 0.16 0.75 0.17 | 0.73 | 0/18 |
| S31E/A101T/G103V/S107D | nd nd nd nd nd nd | nd | 1/18 (2.37) |
| T28P/S31E/S53A/R100H | 0.14 0.35 0.92 0.12 1.14 0.54 | 0.53 | 0/18 |
| T28D/S31E/S63A/S107I | -0.09 0.47 -0.29 0.47 0.13 nd | 0.14 | 0/18 |
| T28L/S31D/G61K/A101N | 1.90 1.19 2.32 1.05 1.71 1.75 | 1.65 | 1/18 (2.61) |
| T28A/S31D/R100S | nd nd nd nd nd nd | nd | 0/18 |
| S31D/G61I/R100K/D106I | nd nd nd nd nd nd | nd | 0/18 |
| N30D/S53A/S107Q | 0.06 0.03 -0.16 -0.15 -0.08 0.04 | -0.04 | 3/18 (2.72) |
| G61S/R100Q/A101D/S107T | 2.57 0.92 0.37 1.78 0.68 0.63 | 1.16 | 0/18 |
| S31D/G61K/A101Q/D106I | nd nd nd nd nd nd | nd | 0/18 |
| G61I/R100L | nd nd nd 0.99 nd nd | 0.99 | 0/18 |
| T28D/D106E | nd 2.28 nd 1.87 1.67 1.32 | 1.79 | 1/18 (2.62) |
| F27Y/S31E/G61S | 2.19 1.33 1.63 1.58 1.85 1.91 | 1.75 | 1/18 (2.88) |
| T28S/S31E/G103N/S107Q | nd nd nd nd nd nd | nd | 0/18 |
| T28H/G61D/R100K/A101L | nd 1.50 1.36 1.49 1.93 2.22 | 1.70 | 1/18 (1.89) |
| T28S/S31E/F59M/G61T/A101C | 1.66 2.85 2.07 1.86 1.50 nd | 1.99 | 0/18 |
| T28S/S53A/S63D/D106K | nd nd nd nd nd nd | nd | 0/18 |
| T28Q/S31E/G61D | 0.27 0.40 0.18 0.23 0.15 0.48 | 0.28 | 0/18 |
| S31E/G61S/A102V | nd nd nd nd nd nd | nd | 0/18 |
| S31E/T58A/G61T/A101Y | 0.17 0.08 -0.30 0.12 -0.29 0.47 | 0.04 | 0/18 |
| T28V/S31D/F59M/G61I | nd 1.24 0.59 2.07 1.21 1.13 | 1.25 | 1/18 (1.46) |
| G61S/R100Q/A102G/S107V | 0.99 0.99 0.92 0.59 1.23 0.97 | 0.95 | 0/18 |
| T28D/G61I/D106N | 0.91 0.46 0.94 2.51 1.01 0.96 | 1.13 | 0/18 |
| S31E/A101Y/D106S | nd nd nd nd nd 2.92 | 2.92 | 1/18 (2.07) |
| G61I/A101M | 1.29 4.25 nd nd 3.68 2.55 | 2.94 | 2/18 (1.66) |

Picked from the list: the 3 lowest averages where every replicate gave a value.

{"changes": "N30D/S53A/S107Q", "replicates, log10 nM": "0.06 0.03 -0.16 -0.15 -0.08 0.04", "log10 Kd (nM), mean": "-0.04", "signal with controls": "3/18 (2.72)"}
{"changes": "S31E/T58A/G61T/A101Y", "replicates, log10 nM": "0.17 0.08 -0.30 0.12 -0.29 0.47", "log10 Kd (nM), mean": "0.04", "signal with controls": "0/18"}
{"changes": "T28Q/S31E/G61D", "replicates, log10 nM": "0.27 0.40 0.18 0.23 0.15 0.48", "log10 Kd (nM), mean": "0.28", "signal with controls": "0/18"}

Values of this round are not directly comparable with the first-round values of the same sequences.
The parent sequence was in this pool as ten entries: three were never detected, three once, and four in most replicates, with averages from 0.34 to 2.37.
Empty control strains, which show no peptide, gave a signal in 1% of pairings with all heavy chain designs; the median was 2.08 and 95% of these signals were weaker than 0.84. No background was subtracted. The control count says in how many pairings with the empty strains this scFv gave a signal, with their mean in brackets.